# Reference: ChEMBL document CHEMBL1136157, “Synthesis of 3a,4-dihydro-3H-[1]benzopyrano[4,3-c]isoxazoles, displaying combined 5-HT uptake inhibiting and alpha(2)-adrenoceptor antagonistic activities: a novel series of potential antidepressants” (Bioorg Med Chem Lett, 2003)
# Chains of the proteins cited; added tags and fusions are not shown.
# UniProt P08913, whole entry: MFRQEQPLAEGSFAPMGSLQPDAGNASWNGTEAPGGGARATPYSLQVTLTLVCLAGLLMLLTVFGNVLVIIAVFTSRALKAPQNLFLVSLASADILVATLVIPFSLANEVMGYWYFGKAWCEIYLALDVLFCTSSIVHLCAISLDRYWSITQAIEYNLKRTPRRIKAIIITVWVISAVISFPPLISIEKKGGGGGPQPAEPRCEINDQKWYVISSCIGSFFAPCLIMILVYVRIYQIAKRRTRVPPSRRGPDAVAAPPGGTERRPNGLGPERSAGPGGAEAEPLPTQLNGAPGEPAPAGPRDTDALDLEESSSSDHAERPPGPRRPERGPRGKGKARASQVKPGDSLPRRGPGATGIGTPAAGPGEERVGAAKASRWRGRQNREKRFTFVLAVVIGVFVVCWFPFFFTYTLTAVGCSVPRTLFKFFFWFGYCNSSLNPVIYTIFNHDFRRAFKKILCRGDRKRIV
# Target: Alpha-2A adrenergic receptor (Homo sapiens, UniProt P08913)
# Assay: In vitro binding affinity towards human alpha-2A adrenergic receptor using [3H]rauwolscine
compound,measurement,value
COc1ccc2c(c1)OCC1C2=NOC1CN1CCN(C/C=C/c2ccccc2)CC1 (stereo unspecified),Ki,0.5 nM
